Test results: US20090239795A1

Target: human GLP-1 receptor (human) (UniProt P43220)
Assay: cell-based or functional assay

exendin-4 peptide
EC50, cell-based cAMP assay: 6.6 pM
